Assay outcomes as filed in PubChem BioAssay.
This is a sample that favours compounds with a hit; in the whole collection about 1.5% have one here.
RAD52 inh: RAD52 (human) annealing inhibition; 0.46% of 360,000 active; inhibition, % at 18.7 µM; recombinant RAD52 DNA annealing, FRET fluorescence; AID 651710;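 active = every replicate showing at least 50% inhibition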
Casp6 inh: caspase-6 (human) enzyme inhibition. inhibition, % at 12.5 µM. 0.53% of 350,000 active. AID 686996. purified caspase-6, Z-VEID-R110 cleavage fluorescence;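 active = mean inhibition across replicates at least about 35%, with every replicate also reaching that limit, limit read from the data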;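 also: 0% = median of neutral control wells and 100% = no fluorescence left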
RAD54 inh: blocks human RAD54 Holliday junction branch migration; FAM/BHQ fluorescence; AID 602329; inhibition, % at 10.4 µM; 0.14% of 360,000 active;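 active = mean normalized replicate activity at least 40 and at least half of replicates scoring 40 or more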;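 also: 0% = median of neutral control wells and 100% = median of positive control wells; inhibitors cause a drop in the FAM fluorescence signal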
Yeast UUG start: modulators of start codon recognition fidelity in yeast; S. cerevisiae UUG-firefly luciferase reporter, luminescence/redox ratio; activity score, % at 18.7 µM; 0.13% of 350,000 active;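 active = replicate mean at a twofold rise or more, about +100% in these data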;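 also: firefly luciferase made from a UUG start codon reports start codon fidelity; reporter light over untreated wells divided by growth signal over untreated wells; some hits fall short of that in this replicate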
PglD DTNB: blocks C. jejuni PglD acetyltransferase activity. purified PglD enzyme, DTNB colorimetric CoA detection. inhibition, % at 12.5 µM. 0.098% of 360,000 active. AID 602405; in the data active = inhibition above about 16%, passing the limit was not always enough
GSIS activator: GLuc luminescence reporter in INS-1E cells, primary screen for activators of glucose-dependent secretion of insulin. INS-1E GLuc reporter insulin secretion, 2-3 h. activation, % at 16.6 µM. 0.61% of 370,000 active;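 active = lowest replicate activation of at least 40%, so every replicate reaches that level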;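 also: 0% = median of neutral control wells and 100% = median of IBMX positive control wells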
* = called active by the depositor.

Screening O=c1c2cc(F)ccc2sn1-c1ccccc1Cl returned RAD52 inh 0, Casp6 inh 3, RAD54 inh -5, Yeast UUG start -23, PglD DTNB -1 and GSIS activator 202*.
Screening Cc1ccc(-n2sc3cc(F)ccc3c2=O)c(C)c1 returned RAD52 inh -10, Casp6 inh 1, RAD54 inh 3, Yeast UUG start -28, PglD DTNB 4 and GSIS activator 207*.
For O=c1c2ccc(F)cc2sn1-c1ccccc1 the results were RAD52 inh -7, Casp6 inh 0, RAD54 inh -8, Yeast UUG start -25, PglD DTNB -2 and GSIS activator 128*.
For O=c1c2ccccc2sn1-c1ccc(F)cc1 the results were RAD52 inh -23, Casp6 inh -1, RAD54 inh -3, Yeast UUG start -26, PglD DTNB 7 and GSIS activator 145*.
Cc1ccc(-n2sc3ccccc3c2=O)cc1 was read as GSIS activator 6.
`Cc1ccc(-n2c(C)c(C)c3c(N)ncnc32)cc1` gave RAD52 inh 2, Casp6 inh 0 and GSIS activator 15.
CC(C)c1ccc(C2N3CC4([N+](=O)[O-])CN2CC([N+](=O)[O-])(C3)C4(C)C)cc1 (configuration not stated) was read as RAD52 inh 6, Casp6 inh -1 and GSIS activator 5.
`CC1(C)C2([N+](=O)[O-])CN3CC1([N+](=O)[O-])CN(C2)C3c1ccccc1` (configuration not stated) gave GSIS activator 56*.
`COc1ccc(C)cc1NC(=O)c1cc(S(=O)(=O)N2CCC3(CC2)OCCO3)ccc1F` gave RAD52 inh -18, Casp6 inh 3, RAD54 inh 5, Yeast UUG start 6, PglD DTNB 0 and GSIS activator -16.
Cc1cccc(C)c1NC(=O)c1cc(S(=O)(=O)N2CCC3(CC2)OCCO3)ccc1F was read as RAD52 inh -5, Casp6 inh 65*, RAD54 inh -10, Yeast UUG start -3 and PglD DTNB 3.
`CN(C)C(=S)Nc1ccc([N+](=O)[O-])cc1` gave GSIS activator 68*.
Screening CN(C)C(=S)Nc1ccc(Cl)cc1 returned RAD52 inh -15, Casp6 inh 3, RAD54 inh -9, Yeast UUG start -26 and PglD DTNB 5.
`COc1ccc(-c2noc(CCC(=O)Nc3cccnc3)n2)cc1OC` gave RAD54 inh -3, Yeast UUG start -9, PglD DTNB 15 and GSIS activator 66*.
Screening COc1ccc(NC(=O)CSc2nnc3ccc(-c4cccnc4)nn23)c(OC)c1 returned RAD52 inh -8, Casp6 inh -9, RAD54 inh -9, Yeast UUG start -3, PglD DTNB 0 and GSIS activator 70*.
Screening CCN(CC)C(=O)c1ccc(NS(=O)(=O)c2ccccc2)cc1 returned RAD54 inh -3, Yeast UUG start 2 and PglD DTNB -6.
Screening C[C@H]1[C@@H](c2ccccc2)Oc2ccc(Cl)cc2S(=O)(=O)N1Cc1cccc(F)c1 returned RAD52 inh -6, Casp6 inh -4 and GSIS activator 8.
Screening C[C@H]1[C@@H](c2ccccc2)Oc2c(Cl)cccc2S(=O)(=O)N1C returned RAD52 inh -10, Casp6 inh 1 and GSIS activator 122*.
For C/C=C/c1ccc([C@@H]2[C@H](CO)N3CCCCN(S(=O)(=O)c4ccc(OC)cc4)C[C@@H]23)cc1 the results were RAD52 inh 21, Casp6 inh 1, RAD54 inh 3, Yeast UUG start 12, PglD DTNB -3 and GSIS activator -5.
`COc1cc(/C=C/C=C2/CC/C(=C/C=C/c3ccc(O)c(OC)c3)C2=O)ccc1O` gave RAD52 inh -38, Casp6 inh 52* and GSIS activator -8.
`CN=C(Nc1cccnc1)c1cccc(C(F)(F)F)c1` gave RAD52 inh 0, Casp6 inh 65*, RAD54 inh -9, Yeast UUG start -26, PglD DTNB -9 and GSIS activator 15.

Among those listed so far, four have a Cl atom:
Screening O=c1c2cc(F)ccc2sn1-c1ccccc1Cl returned RAD52 inh 0, Casp6 inh 3, RAD54 inh -5, Yeast UUG start -23, PglD DTNB -1 and GSIS activator 202*.
Screening CN(C)C(=S)Nc1ccc(Cl)cc1 returned RAD52 inh -15, Casp6 inh 3, RAD54 inh -9, Yeast UUG start -26 and PglD DTNB 5.
Screening C[C@H]1[C@@H](c2ccccc2)Oc2ccc(Cl)cc2S(=O)(=O)N1Cc1cccc(F)c1 returned RAD52 inh -6, Casp6 inh -4 and GSIS activator 8.
Screening C[C@H]1[C@@H](c2ccccc2)Oc2c(Cl)cccc2S(=O)(=O)N1C returned RAD52 inh -10, Casp6 inh 1 and GSIS activator 122*.

The results go on.
CN(C)CCNCCCNc1c2ccccc2nc2cccc([N+](=O)[O-])c12 was read as RAD52 inh 81* and Casp6 inh -147.
For CN(C)CCNc1ccc(-c2nn(C)c(=O)c3ccccc23)cc1[N+](=O)[O-] the results were RAD52 inh -16, Casp6 inh 0 and GSIS activator 0.
CCCCCc1ccc(CC(=O)N2CCOCC2)cc1 was read as RAD52 inh 1, Casp6 inh 50*, RAD54 inh 7, Yeast UUG start -9, PglD DTNB 1 and GSIS activator -8.
COc1ccc(S(=O)(=O)NC(=O)C2(C)CCN2C(=O)CCc2ccc(Cl)cc2Cl)cc1 (configuration not stated) was read as RAD52 inh -14, Casp6 inh 2, RAD54 inh -3, Yeast UUG start 0, PglD DTNB -6 and GSIS activator -5.
COC(=O)c1cccc(C(=O)N2CCCC(C(=O)c3cccc(OC(C)C)c3)C2)c1 (configuration not stated) was read as RAD52 inh -7, Casp6 inh 39*, RAD54 inh -2, Yeast UUG start -20, PglD DTNB -1 and GSIS activator 19.
For CCOC(=O)CCNC(=O)N1CCCC(C(=O)c2cccc(Cl)c2)C1 (configuration not stated) the results were RAD52 inh -3, Casp6 inh 2, RAD54 inh 16, Yeast UUG start -2, PglD DTNB 0 and GSIS activator 2.
`CCOC(=O)CCNC(=O)N1CCCC(C(=O)c2cccc(OC(C)C)c2)C1` (configuration not stated) gave RAD52 inh -8, Casp6 inh 2, RAD54 inh 3, Yeast UUG start -5, PglD DTNB -2 and GSIS activator 48*.
`COc1ccccc1CCNC(=O)CSc1ccc(-c2ccco2)nn1` gave RAD52 inh -28, Casp6 inh 8 and GSIS activator 21.
Cc1cc(C)[n+](-c2ccc(Oc3ccccc3)c(S(=O)(=O)[O-])c2)[nH]1 was read as RAD52 inh -10, Casp6 inh 41* and GSIS activator -2.
Screening COc1cc2sc3ccc(C#Cc4ccc(N)cc4)cc3c(=O)c2cc1OC returned RAD54 inh 4, Yeast UUG start -14, PglD DTNB 6 and GSIS activator 58*.
`CC(=O)Oc1ccc2cc(-c3cccnc3)c(=O)oc2c1` gave RAD52 inh -2, Casp6 inh 0 and GSIS activator -3.
Screening C=CCSc1ncccc1C(=O)NCc1ccc(C)cc1 returned RAD54 inh -2, Yeast UUG start -13 and PglD DTNB -5.
`COc1ccc(C=O)cc1Cn1cnc2c(cnn2C)c1=O` gave RAD52 inh -11, Casp6 inh 3 and GSIS activator 7.
